This note sets out measurements from PubChem BioAssay AID588358 (NMMLSC, 2011).

The chains behind the UniProt entries cited, without tags or fusion partners. Where a name states a change or a piece, a line headed by the entry shows the natural chain unless it says otherwise.
UniProt P32926: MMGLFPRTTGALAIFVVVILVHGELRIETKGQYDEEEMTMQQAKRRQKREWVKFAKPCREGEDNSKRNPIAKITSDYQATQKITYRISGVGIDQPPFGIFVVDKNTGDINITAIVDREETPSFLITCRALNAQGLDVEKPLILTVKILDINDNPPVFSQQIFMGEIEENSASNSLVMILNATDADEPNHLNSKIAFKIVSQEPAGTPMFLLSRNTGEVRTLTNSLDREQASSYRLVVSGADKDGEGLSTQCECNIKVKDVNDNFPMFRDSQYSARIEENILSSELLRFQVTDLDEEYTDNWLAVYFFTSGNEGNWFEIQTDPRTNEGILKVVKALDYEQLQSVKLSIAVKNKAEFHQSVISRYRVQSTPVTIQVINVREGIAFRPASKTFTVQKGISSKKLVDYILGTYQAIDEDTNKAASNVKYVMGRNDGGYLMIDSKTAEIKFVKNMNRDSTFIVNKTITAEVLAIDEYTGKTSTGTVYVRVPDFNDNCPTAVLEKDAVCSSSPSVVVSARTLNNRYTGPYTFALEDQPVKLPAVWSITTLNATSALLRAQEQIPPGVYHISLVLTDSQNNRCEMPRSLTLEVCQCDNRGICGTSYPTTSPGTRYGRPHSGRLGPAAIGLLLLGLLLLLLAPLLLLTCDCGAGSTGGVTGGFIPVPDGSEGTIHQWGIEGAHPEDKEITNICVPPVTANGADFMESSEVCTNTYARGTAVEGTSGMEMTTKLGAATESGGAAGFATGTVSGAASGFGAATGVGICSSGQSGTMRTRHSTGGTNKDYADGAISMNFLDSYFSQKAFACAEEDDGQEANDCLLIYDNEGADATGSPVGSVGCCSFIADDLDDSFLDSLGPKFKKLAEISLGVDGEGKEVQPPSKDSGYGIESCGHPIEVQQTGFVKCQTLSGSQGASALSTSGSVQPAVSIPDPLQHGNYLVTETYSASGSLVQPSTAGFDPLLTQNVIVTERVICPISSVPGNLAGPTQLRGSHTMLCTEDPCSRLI

Molecules are shown by their SMILES. The list shows a part of the results, in another mix than the full data. The source made the active and inactive calls.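 How the source made its calls: active means binding more than 3 SD below its plate's average and above zero; inconclusive means below that plate limit but binding exactly zero; inactive means the rest.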

This experiment concerns the target Desmoglein-3 (Homo sapiens) (UniProt P32926). The experiment in a line: blockers of anti-DSG3 scFv binding – biochemical, bead-based, flow cytometry, scFv-GFP, primary screen (AID 588358).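 Further: hits lower antibody fragment binding to DSG3.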 To be noted: DSG3-coupled beads, at 10 µM, active compounds read low.
Take `CCCOP(=S)(Nc1nc(N)cc(=O)[nH]1)OCCC`: the binding (percent of control) is inactive: 93.8%.
For the compound `Cc1ccc(NCCc2c([N+](=O)[O-])cc([N+](=O)[O-])cc2[N+](=O)[O-])cc1`, the binding (percent of control) was inactive: 97.6%.
`Nc1cccc2c([As](=O)(O)O)cccc12`: the binding (percent of control) is inactive: 96.4%.
`COc1cc(C2NCCC3(OCCO3)C2(C)C)cc(OC)c1OC` (centres undefined): the binding (percent of control) is inactive: 103%.
To `CCOP(=O)(Nc1cccc2ccccc12)OCC` belongs inactive: 101%; to `O=[As](O)(O)c1cccnc1`, inactive: 99.5%; to `COc1cc(C(=O)NCC2(N3CCOCC3)CCCCC2)cc(Cl)c1OC(C)C`, inactive: 100%.
The figure for `CS(=O)(=O)c1ccc(Cl)c(NC(=O)COC(=O)C(O)(c2ccccc2)c2ccccc2)c1` is inactive: 104%; for `O=C(OC1CN2CCC1CC2)c1ccc(Cl)cc1` (centres undefined) it is inactive: 112%; for `Cc1cccc(OCC(=O)OC2CN3CCC2CC3)c1` (centres undefined) it is inactive: 103%.
As to `O=[As](O)(c1cccc(O)c1)c1cccc(O)c1`, the binding (percent of control) is inactive: 103%.
The figure for `NC(=O)Nc1ccc([As](=O)(O)O)cc1` is inactive: 104%; for `O=[N+]([O-])c1ccc2c(c1)nnn2O` it is inactive: 98.3%; for `CN(C)C(=O)c1cc([N+](=O)[O-])cc2c1-c1c(cc([N+](=O)[O-])cc1[N+](=O)[O-])C2=O` it is inactive: 101%.
As for `CN(C(=O)Cc1ccc(Cl)c(Cl)c1)[C@H]1CC[C@@]2(CCCO2)C[C@@H]1N1CCCC1`, the binding (percent of control) is inactive: 103%.
The figure for `N#CCCN(C(=O)COC(=O)C(O)(c1ccccc1)c1ccccc1)c1ccc(F)cc1` is inactive: 97.8%.
To `CCOP1(=S)c2c(C)nn(CCC#N)c2N=C(c2ccc(F)cc2)N1C` (centres undefined) belongs inactive: 91.5%; to `CS(=O)(=O)c1cc([N+](=O)[O-])c2no[n+]([O-])c2c1`, inactive: 90.6%; to `CCOP1(=S)c2c(C)nn(CCC#N)c2N=C(c2ccccc2F)N1C` (centres undefined), inactive: 94.8%.
To `O=P(Nc1nccs1)(Oc1ccccc1)Oc1ccccc1` belongs inactive: 111%.
Regarding `O=P(Nc1nccs1)(c1ccccc1)c1nc2ccccc2s1` (centres undefined), the binding (percent of control) was inactive: 97%.
Consider `Nc1ccccc1[As](=O)(O)c1ccccc1`, for which the binding (percent of control) was inactive: 96.1%.
The figure for `O=C(O)COc1ccc([As](=O)(O)O)cc1[N+](=O)[O-]` is inactive: 112%; for `O=P1(Nc2ncccn2)COc2ccccc2OC1` it is inactive: 105%; for `Cc1ccc(OCC(=O)OC2CN3CCC2CC3)cc1` (centres undefined) it is inactive: 110%.
Regarding `O=[As](O)(c1cccs1)c1cccs1`, the binding (percent of control) was inactive: 87.6%.
The figure for `O=P1(Nc2ccc(Br)cn2)COc2ccccc2OC1` is inactive: 100%; for `NS(=O)(=O)c1cccc(NC(=O)COC(=O)C(O)(c2ccccc2)c2ccccc2)c1` it is inactive: 106%.
The figure for `Nc1cccc([As](=O)(O)c2ccccc2)c1` is inactive: 101%.
To `Cc1nn(-c2ccccc2)c2c1P(=O)(N1CCOCC1)N(C)C(c1ccccc1)=N2` (centres undefined) belongs inactive: 102%; to `CC1CCC(C(C)C)C(OP(=O)(Nc2ccccn2)c2ccccc2)C1` (centres undefined), inactive: 102%.
Consider `Cc1ccc(C(=O)OC2CN3CCC2CC3)cc1` (centres undefined), for which the binding (percent of control) is inactive: 112%.
On to `CCCC1OP(=O)(Nc2ccccc2)OCC1CC` (centres undefined), for which the binding (percent of control) was inactive: 94.7%.
Regarding `CN(C)C1(CNC(=O)c2ccc(S(C)(=O)=O)cc2)CCCCC1`, the binding (percent of control) was inactive: 106%.
On to `COc1ccccc1CNC(=O)COC(=O)C(O)(c1ccccc1)c1ccccc1`, for which the binding (percent of control) was inactive: 105%.
For the compound `CC1(CBr)Cn2c(nc3ccccc3c2=O)S1` (centres undefined), the binding (percent of control) is inactive: 98.9%.
Take `CC(C)/C=N\N=C(\N)N[N+](=O)[O-]`: the binding (percent of control) is inactive: 102%.
On to `CCOP(=O)(Nc1ccc(C)cn1)OCC`, for which the binding (percent of control) was inactive: 97.3%.
Consider `O=P1(Nc2ccccn2)COc2ccccc2OC1`, for which the binding (percent of control) is inactive: 97.5%.
The figure for `CCC1=CC2Cc3nc4ccc(Cl)cc4c(N)c3C(C1)C2` (centres undefined) is inactive: 153%; for `CCOP(=O)(NC(=NC(C)c1ccccc1)NC(C)c1ccccc1)OCC` (centres undefined) it is inactive: 103%; for `O=P1(N(CCCl)CCCl)NCCC(C(F)(F)F)O1` (centres undefined) it is inactive: 105%.
For the compound `Clc1n[nH]nc1-c1nn[nH][15n]1`, the binding (percent of control) was inactive: 96%.
As for `CC(C)(C)C(=O)NC(Sc1ncccn1)C(Cl)(Cl)Cl` (centres undefined), the binding (percent of control) is inactive: 102%.
Turning to `CCOC(=O)c1ccc(NC(=O)C(C)(CCl)SC)cc1` (centres undefined), the binding (percent of control) was inactive: 102%.
The figure for `O=C(OC1CN2CCC1CC2)c1cccc([N+](=O)[O-])c1` (centres undefined) is inactive: 89.8%; for `CSc1ccc(Nc2c([N+](=O)[O-])cc([N+](=O)[O-])cc2[N+](=O)[O-])cc1` it is inactive: 103%; for `COP1(=S)c2c(C)nn(CCC#N)c2N=C(c2ccc(F)cc2)N1C` (centres undefined) it is inactive: 100%.
To `O=C(COc1ccccc1)OC1CN2CCC1CC2` (centres undefined) belongs inactive: 105%; to `O=C(Nc1ccncc1[N+](=O)[O-])c1ccc([N+](=O)[O-])cc1[N+](=O)[O-]`, inactive: 103%.
The figure for `O=C(O)C(=O)c1ccc(N(CCCl)CCCl)cc1` is inactive: 106%; for `O=[N+]([O-])c1ccc(Nc2ccc(Oc3ccc([N+](=O)[O-])cc3[N+](=O)[O-])cc2)c([N+](=O)[O-])c1` it is inactive: 91.9%.
On to `O=P(Nc1ccccn1)(c1cccc2ccccc12)c1cccc2ccccc12`, for which the binding (percent of control) is inactive: 101%.
The figure for `Cc1cc(SC(NC=O)C(Cl)(Cl)Cl)ncn1` (centres undefined) is inactive: 86.7%; for `CC1CCNP(=O)(N(CCCl)CCCl)O1` (centres undefined) it is inactive: 94.9%; for `CCOC(=O)Nc1ccc([As](=O)(O)O)c(O)c1` it is inactive: 88.6%.
The figure for `O=C(O)C(O)c1ccc(N(CCCl)CCCl)cc1` (centres undefined) is inactive: 110%.
The figure for `CCCCOc1ccc(C(=O)NCC2(N3CCCCC3)CCCCC2)cc1OC` is inactive: 107%.
Turning to `Cc1cc(SC(NC(=O)c2ccccc2)C(Cl)(Cl)Cl)nc(C(C)C)n1` (centres undefined), the binding (percent of control) is inactive: 85.2%.
To `COP(=O)(OC)N1CC1c1ccccc1` (centres undefined) belongs inactive: 107%; to `COC(=O)C1(C)COP(=O)(N2CCCCCC2)OC1` (centres undefined), inactive: 90.6%.
For the compound `CC(C)c1ccc(OP(=O)(Nc2ccccn2)Oc2ccccc2F)cc1` (centres undefined), the binding (percent of control) was inactive: 110%.
To `ClCCSc1nnc(-c2cccnc2)o1` belongs inactive: 93.2%; to `CC(C)NC(=O)NP(=O)(Oc1ccccc1)Oc1ccccc1`, inactive: 98.9%; to `CCN(CC)C(=S)SC(NC=O)C(Cl)(Cl)Cl` (centres undefined), inactive: 103%.
The figure for `O=C(OC1CN2CCC1CC2)c1cccc2[nH]cnc12` (centres undefined) is inactive: 90.3%; for `O=[N+]([O-])c1cc([N+](=O)[O-])c(-c2ccn[nH]2)s1` it is inactive: 107%; for `O=[As](O)(c1ccc(O)cc1)c1ccccc1O` it is inactive: 96.6%.
To `C[As](=O)(O)c1cccc(C(=O)O)c1` belongs inactive: 94.8%.
`O=[N+]([O-])c1ccc(-c2cc([N+](=O)[O-])c(O)c([N+](=O)[O-])c2)cc1`: the binding (percent of control) is inactive: 95.8%.
With `COc1cc(C(=O)NCC2(N3CCOCC3)CCCCC2)ccc1OCC(C)C`, the binding (percent of control) was inactive: 96.8%.
To `Cc1ccc2nc3c(c(C)c2c1)CC(C(Cl)Cl)S3` (centres undefined) belongs inactive: 87.3%; to `Cc1ccc(OP(=O)(Nc2ccc([N+](=O)[O-])cn2)Oc2ccc(C)cc2)cc1`, inactive: 94.5%.
The figure for `COc1ccc(N/C(=N/P(=O)(N2CCOCC2)N2CCOCC2)N2CCOCC2)cc1` is inactive: 102%; for `O=[N+]([O-])c1cc(Oc2ccc([N+](=O)[O-])cc2C(F)(F)F)cc([N+](=O)[O-])c1` it is inactive: 88%.
With `O=C(OC1CN2CCC1CC2)C12CC3CC(CC(C3)C1)C2` (centres undefined), the binding (percent of control) was inactive: 96.9%.
To `Cc1cc(=O)[nH]c(N[N+](=O)[O-])n1` belongs inactive: 96.3%; to `Cc1c2c(nc3ccccc13)SC(C(Cl)Cl)C2` (centres undefined), inactive: 108%; to `COc1ccc2nc(NP(=O)(c3ccccc3)c3ccccc3)sc2c1`, inactive: 99.1%.
As to `COc1cc(I)ccc1[As](=O)(O)O`, the binding (percent of control) is inactive: 94.8%.
As for `O=P1(N(CCCl)CCCl)Nc2ccccc2N1`, the binding (percent of control) is inactive: 117%.
As to `CC(C)CC(=O)NC(Sc1ccc(Cl)cc1)C(Cl)(Cl)Cl` (centres undefined), the binding (percent of control) was inactive: 106%.
The figure for `Oc1ccccc1CNc1ccccn1` is inactive: 96.5%; for `O=C(NC(Sc1ccncn1)C(Cl)(Cl)Cl)c1ccccc1` (centres undefined) it is inactive: 115%; for `NC(=O)c1cc([N+](=O)[O-])cc([N+](=O)[O-])c1N` it is inactive: 98.8%.
To `CN(C(=O)Cc1ccc(Cl)c(Cl)c1)[C@H]1CCCC[C@H]1N1CCCC1` belongs inactive: 101%; to `Cc1ccc(N/C(=N/P(=O)(N2CCOCC2)N2CCOCC2)N2CCOCC2)cc1`, inactive: 111%; to `COc1ccccc1OP(=O)(Nc1ccc(C)cn1)Oc1ccccc1OC`, inactive: 103%.
Consider `Cc1ccc(OP(=O)(Nc2nccs2)Oc2ccc(C)cc2)cc1`, for which the binding (percent of control) is inactive: 103%.
On to `CN1CCCC(OC(=O)C(c2ccccc2)c2ccccc2)C1` (centres undefined), for which the binding (percent of control) is inactive: 114%.
The figure for `Clc1ccc(Cl)c(NC2=NCC(CBr)S2)c1` (centres undefined) is inactive: 99.1%; for `CCN(N=Nc1nonc1N)c1nonc1N` it is inactive: 99%.
Regarding `Nc1cccc2ccc([As](=O)(O)O)cc12`, the binding (percent of control) is inactive: 103%.
Consider `CC(=O)Nc1ccc([As](=O)(O)O)cc1`, for which the binding (percent of control) was inactive: 93%.
Consider `O=C(O)c1ccccc1[As](=O)(O)O`, for which the binding (percent of control) was inactive: 99.9%.
The figure for `CCCC1OP(N)(=O)OCC1CC` (centres undefined) is inactive: 95.5%.
In the case of `CN(C)P(=O)(N(C)C)n1c(Nc2ccccc2)nnc1-c1ccccc1`, the binding (percent of control) was inactive: 98.5%.
The figure for `Cc1cc(SC(NC(=O)c2ccc(F)cc2)C(Cl)(Cl)Cl)ncn1` (centres undefined) is inactive: 107%; for `CCOP(=O)(Nc1ccccc1)OCC` it is inactive: 108%; for `CN(C(=O)Cc1ccc(Cl)c(Cl)c1)[C@H]1CCCC[C@@H]1N1CCCC1` it is inactive: 98.7%.
The figure for `CC(C)(C)C(=O)NC(Sc1ccncn1)C(Cl)(Cl)Cl` (centres undefined) is inactive: 101%; for `O=[N+]([O-])c1ncn(CCn2ncnc2[N+](=O)[O-])n1` it is inactive: 99.6%; for `COC(=O)C1(C)COP(=O)(Nc2ccccc2)OC1` (centres undefined) it is inactive: 91.3%.
Regarding `O=C(O)CNc1ccc([As](=O)(O)O)cc1`, the binding (percent of control) is inactive: 89.2%.
